According to PMC6723440 (Toxins, 2019):

Columns and labels:
[1] = human, pH 7.4
[2] = human, pH 7.4; remark: listed apart in the source

7-β-hydroxy-zearalenol [β-ZOL]
percentage of metabolized parent toxin in phase I reactions ([1]; microsomes, 1 h): 7%
Number of Metabolites (n): Desaturation, oxidation, −(H2) +(O) [1]: 1
Number of Metabolites (n): Desaturation, oxidation, −(H4) +(O) [1]: 1
Number of Metabolites (n): Oxidation, +(O2) [1]: 0
Number of Metabolites (n): Oxidation, −(H4) +(O2) [1]: 0
∑ n, total number of oxidized metabolites [1]: 8
Total Number of Glucuronides [2]: 7
converted into glucoronides [2]: 51%
glucuronides of oxidized metabolites and double glucuronides (minor products) [2]: 2%
